Test results from patent US8969352B2, “Substituted 2-azabicycles and their use as orexin receptor modulators” (Janssen Pharmaceutica NV, priority 2013, dated 2015).
Read-outs that look alike come from different tables or passages of the source.

Chains of the proteins cited; added tags and fusions are not shown.
UniProt O43614, whole entry: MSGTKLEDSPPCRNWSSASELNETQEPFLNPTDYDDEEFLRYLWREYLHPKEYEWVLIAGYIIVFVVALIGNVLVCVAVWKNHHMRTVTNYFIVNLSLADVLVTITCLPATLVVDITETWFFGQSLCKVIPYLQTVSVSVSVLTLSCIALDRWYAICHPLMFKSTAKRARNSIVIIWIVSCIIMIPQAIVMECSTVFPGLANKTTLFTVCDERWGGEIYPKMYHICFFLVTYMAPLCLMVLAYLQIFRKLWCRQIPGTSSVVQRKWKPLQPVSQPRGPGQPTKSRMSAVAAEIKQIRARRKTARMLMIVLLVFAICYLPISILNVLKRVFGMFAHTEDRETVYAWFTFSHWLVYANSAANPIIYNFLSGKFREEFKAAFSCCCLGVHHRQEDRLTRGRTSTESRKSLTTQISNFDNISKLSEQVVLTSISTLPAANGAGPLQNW

Legend:
human orexin 1 receptor = human orexin 1 receptor (Homo sapiens, UniProt O43613); assay: Human orexin 1 receptor radioligand binding; settings: CHO cells stably expressing human orexin 1 receptor; competitive radioligand binding, apparent Ki; read-out: hOX1 Ki
Description: (§1) Rat and Human Orexin 1 Receptor Radioligand Binding Studies
(§2) After centrifugation (2K×G, 5 min at 4° C.), the supernatant was aspirated and the pellets frozen and stored at −80° C. […] Each cell pellet from a 15 cm plate was resuspended in 10 mL, stored on ice, and homogenized for 45 sec prior to addition to the reactions. […] The final concentration of DMSO in the reactions is equal to or less than 0.1%. Total and nonspecific binding was determined in the absence and presence of 10 μM almorexant. The total volume of each reaction is 200 μL (20 μL of diluted compounds, 80 μL of [^3H]-(1-(5-(2-fluoro-phenyl)-2-methyl-thiazol-4-yl)-1-((S)-2-(5-phenyl-(1,3,4)oxadiazol-2-ylmethyl)-pyrrolidin-1-yl)-methanone) diluted in PBS and 100 μL of the cell suspension). […] The plates were washed 3 times by aspirating 30 ml PBS through the plates. Plates were dried in 55° C. oven for 60 min, scintillation fluid was added, and the radioactivity was counted on a Topcount (Packard).

rat orexin 1 receptor = rat orexin 1 receptor (Rattus norvegicus, UniProt P56718); assay: Rat orexin 1 receptor radioligand binding
Description: as §1, §2

human orexin 2 receptor = human orexin 2 receptor (Homo sapiens (Human), UniProt O43614); assay: Human orexin 2 receptor radioligand binding; settings: HEK293 stably expressing human orexin 2 receptor; [3H]-EMPA competitive binding, apparent Ki; read-out: hOX2 Ki
Description: Human Orexin 2 Receptor Radioligand Binding Studies
as §2, with “sec just” for “sec”, “reactions. Competition binding experiments in 96 well polypropylene plates were performed using [^3H]-EMPA (Moraveck Corporation, specific activity=29.6 Ci/mmol), diluted to a 5 nM concentration in PBS (2 nM final concentration).” for “reactions.”, “[^3H]-EMPA” for “[^3H]-(1-(5-(2-fluoro-phenyl)-2-methyl-thiazol-4-yl)-1-((S)-2-(5-phenyl-(1,3,4)oxadiazol-2-ylmethyl)-pyrrolidin-1-yl)-methanone)”

[1] = HEK293 cells stably expressing rat orexin 1 receptor, competitive radioligand binding, apparent Ki, read-out: rOX1 Ki

| Ki (human orexin 2 receptor) | Ki (rat orexin 1 receptor) | Compound | Ki (human orexin 1 receptor) | Ki (rat orexin 1 receptor; [1]) |
| --- | --- | --- | --- | --- |
| – | – | Cc1ccc(-n2nccn2)c(C(=O)N2CC3CC(Oc4ccc(C(F)(F)F)cn4)C2C3)n1 (single isomer, unassigned) [Example 24] | 0.016 µM | – |
| – | – | Cc1ccc(-n2nccn2)c(C(=O)N2CC3CC(Oc4ccc(C(F)(F)F)cn4)C2C3)n1 [Example 25, (6-methyl-3-(2H-1,2,3-triazol-2-yl)pyridin-2-yl)((1S,4R,6R)-6-((5-(trifluoromethyl)pyridin-2-yl)oxy)-2-azabicyclo[2.2.1]heptan-2-yl)methanone] | 0.015 µM | – |
| – | – | O=C(c1cc(F)ccc1-n1nccn1)N1CC2CC(Oc3ccc(C(F)(F)F)cn3)C1C2 (racemic) [Example 14, (R/S)-(5-fluoro-2-(2H-1,2,3-triazol-2-yl)phenyl)(6-((5-(trifluoromethyl)pyridin-2-yl)oxy)-2-azabicyclo[2.2.1]heptan-2-yl)methanone] | – | 0.016 µM |
| 1.6 µM | – | Cc1cnc(C(=O)N2C[C@H]3C[C@@H](Oc4ccc(C(F)(F)F)cn4)[C@@H]2C3)c(-n2nccn2)c1 [Example 28, (5-methyl-3-(2H-1,2,3-triazol-2-yl)pyridin-2-yl)((1S,4R,6R)-6-((5-(trifluoromethyl)pyridin-2-yl)oxy)-2-azabicyclo[2.2.1]heptan-2-yl)methanone] | 0.021 µM | 0.032 µM |
| – | – | O=C(c1cc(F)ccc1-n1nccn1)N1C[C@H]2C[C@@H](Oc3ccc(C(F)(F)F)cn3)[C@@H]1C2 [Example 43, (5-fluoro-2-(2H-1,2,3-triazol-2-yl)phenyl)((1S,4R,6R)-6-((5-(trifluoromethyl)pyridin-2-yl)oxy)-2-azabicyclo[2.2.1]heptan-2-yl)methanone] | 0.008 µM | 0.016 µM |
| 0.322 µM | – | O=C(c1ccccc1-n1nccn1)N1C[C@H]2C[C@@H](Oc3ccc(C(F)(F)F)cn3)[C@@H]1C2 [Example 36, (2-(2H-1,2,3-triazol-2-yl)phenyl)((1S,4R,6R)-6-((5-(trifluoromethyl)pyridin-2-yl)oxy)-2-azabicyclo[2.2.1]heptan-2-yl)methanone] | – | – |
| – | 0.008 µM | Cc1cccc(C(=O)N2CC3CC(Oc4ccc(C(F)(F)F)cn4)C2C3)c1-n1nccn1 (racemic) [Example 17, (R/S)-(3-methyl-2-(2H-1,2,3-triazol-2-yl)phenyl)(6-((5-(trifluoromethyl)pyridin-2-yl)oxy)-2-azabicyclo[2.2.1]heptan-2-yl)methanone] | 0.003 µM | – |
| – | – | O=C(c1ccc(F)cc1-c1ncccn1)N1C[C@H]2C[C@@H](Oc3ccc(C(F)(F)F)cn3)[C@@H]1C2 [Example 26, (4-fluoro-2-(pyrimidin-2-yl)phenyl)((1S,4R,6R)-6-((5-(trifluoromethyl)pyridin-2-yl)oxy)-2-azabicyclo[2.2.1]heptan-2-yl)methanone] | – | 0.012 µM |
| – | – | O=C(c1cccc(F)c1-n1nccn1)N1C[C@H]2C[C@@H](Oc3ccc(C(F)(F)F)cn3)[C@@H]1C2 [Example 35, (3-fluoro-2-(2H-1,2,3-triazol-2-yl)phenyl)((1S,4R,6R)-6-((5-(trifluoromethyl)pyridin-2-yl)oxy)-2-azabicyclo[2.2.1]heptan-2-yl)methanone] | 0.003 µM | – |
| 0.65 µM | – | O=C(c1c(F)cccc1-n1nccn1)N1C[C@H]2C[C@@H](Oc3ccc(C(F)(F)F)cn3)[C@@H]1C2 [Example 46, (2-fluoro-6-(2H-1,2,3-triazol-2-yl)phenyl)((1S,4R,6R)-6-((5-(trifluoromethyl)pyridin-2-yl)oxy)-2-azabicyclo[2.2.1]heptan-2-yl)methanone] | – | – |

| Compound | Ki (human orexin 2 receptor) | Ki (rat orexin 1 receptor) | Ki (human orexin 1 receptor) | Ki (rat orexin 1 receptor; [1]) |
| --- | --- | --- | --- | --- |
| O=C(c1cccc(F)c1-c1ncccn1)N1C[C@H]2C[C@@H](Oc3ccc(C(F)(F)F)cn3)[C@@H]1C2 [Example 27, (3-fluoro-2-(pyrimidin-2-yl)phenyl)((1S,4R,6R)-6-((5-(trifluoromethyl)pyridin-2-yl)oxy)-2-azabicyclo[2.2.1]heptan-2-yl)methanone] | 0.767 µM | – | 0.004 µM | 0.004 µM |
